In patent US20240016928A1 (SCHOLAR ROCK, published 2024):

Molecular target: T1, cyGARP-proTGFβ1 (cynomolgus (printed 'cy'); Cyno)
T1 construct: Only the label 'cyGARP-proTGFβ1' is printed; also called cynomolgus GARP-proTGFβ1 complex
Assay: species cross-reactivity screen; legend: +++ KD <1 nM

B1: Ab1 (antibody, human IgG4 S228P, lambda, V domains shown)
VH: EVQLVESGGGLVQPGRSLRLSCAASGFTFSSYGMHWVRQAPGKGLEWVAVISYDGSNKYYADSVKGRFTISRDNSKNTLYLQMNSLRAEDTAVYYCARDIRPYGDYSAAFDIWGQGTLVTVSS
VL: NFMLTQPHSVSESPGKTVTISCTGSSGSIASNYVQWYQQRPGSAPSIVIFEDNQRPSGAPDRFSGSIDSSSNSASLTISGLKTEDEADYYCQSYDSSNHGGVFGGGTQLTVLG
notes: mIgG1 versions are mentioned for in vivo work
KD: < 1 nM

B2: Ab2 (antibody, V domains shown)
VH: EVQLVQSGAEMKKPGESLKISCKGSGYNFASDWIGWVRQTPGKGLEWMGVIYPGDSDTRYSASFQGQVTISADKSINTAYLQWSSLKASDTAMYYCASAAGIAAAGHVTAFDIWGQGTMVTVSS
VL: not shown
KD: < 1 nM
